Data set [1] deals with T1, CPB (TAFIa) (Homo sapiens, UniProt Q96IY4).
T1 sequence (Q96IY4 115-423): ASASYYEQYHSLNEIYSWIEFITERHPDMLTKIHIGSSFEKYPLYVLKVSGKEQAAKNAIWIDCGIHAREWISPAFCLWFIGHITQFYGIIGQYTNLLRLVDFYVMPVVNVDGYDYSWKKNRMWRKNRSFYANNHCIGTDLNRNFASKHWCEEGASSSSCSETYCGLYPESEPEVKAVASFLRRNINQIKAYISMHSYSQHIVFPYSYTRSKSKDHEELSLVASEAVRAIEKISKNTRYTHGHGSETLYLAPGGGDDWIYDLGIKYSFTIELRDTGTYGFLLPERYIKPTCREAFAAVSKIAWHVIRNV
Description: HPLC analysis of chemerin 10-mer cleavage by CPB. In kind it is biochemical. The note with it: 10-mer 1 μM, CPB 30 nM, 30 min at 37 °C, C18 HPLC.

In the next data set the target is T2, human CMKLR1 (Homo sapiens, UniProt Q99788).
T2 sequence (Q99788 1-373): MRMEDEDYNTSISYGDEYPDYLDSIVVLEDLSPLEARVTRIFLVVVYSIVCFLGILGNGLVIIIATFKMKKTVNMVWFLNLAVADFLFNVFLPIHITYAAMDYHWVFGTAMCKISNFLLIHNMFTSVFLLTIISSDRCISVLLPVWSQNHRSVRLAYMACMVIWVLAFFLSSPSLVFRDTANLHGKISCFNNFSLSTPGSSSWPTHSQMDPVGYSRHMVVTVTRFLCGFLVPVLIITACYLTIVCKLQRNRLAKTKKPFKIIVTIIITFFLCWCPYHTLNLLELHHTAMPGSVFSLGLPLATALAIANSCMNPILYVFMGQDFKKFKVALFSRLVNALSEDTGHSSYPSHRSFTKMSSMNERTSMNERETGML
Put plainly: In vitro transwell chemotaxis of CMKLR1/L1.2 transfectants. In kind it is cell-based.

Another data set concerns the target T3, CPN (Homo sapiens, UniProt P15169).
T3 sequence (P15169 21-458): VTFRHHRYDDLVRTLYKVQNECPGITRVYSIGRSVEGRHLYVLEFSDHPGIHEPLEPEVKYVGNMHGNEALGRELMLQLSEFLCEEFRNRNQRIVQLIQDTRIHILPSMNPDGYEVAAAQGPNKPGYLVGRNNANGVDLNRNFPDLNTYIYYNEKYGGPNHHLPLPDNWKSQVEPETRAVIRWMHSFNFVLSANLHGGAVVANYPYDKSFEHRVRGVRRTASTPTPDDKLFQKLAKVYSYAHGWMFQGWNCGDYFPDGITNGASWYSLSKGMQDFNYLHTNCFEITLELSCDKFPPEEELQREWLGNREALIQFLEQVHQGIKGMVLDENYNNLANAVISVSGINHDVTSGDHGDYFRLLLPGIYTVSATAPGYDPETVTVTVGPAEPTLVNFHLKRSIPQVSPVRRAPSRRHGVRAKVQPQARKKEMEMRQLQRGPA
Description: Michaelis-Menten kinetics of peptide hydrolysis by CPN. In kind it is biochemical.

Data set [2] concerns the target T1, CPB (TAFIa). Put plainly: Michaelis-Menten kinetics of peptide hydrolysis by CPB. In kind it is biochemical. As to conditions: hydrolysis by 50 nM CPB, peptide 20 to 320 μM, 5 min at 37 °C.
Data set [3] concerns recombinant CPN (carboxypeptidase N). Put plainly: CPN. The note with it: 37 °C, up to 30 min.

These results are taken from publication PMC2613638 (The Journal of Biological Chemistry, 2009).

For `C[C@H](NC(=O)[C@H](Cc1ccccc1)NC(=O)[C@H](CCC(N)=O)NC(=O)CNC(=O)[C@@H]1CCCN1C(=O)[C@H](Cc1ccccc1)NC(=O)[C@@H](N)Cc1ccc(O)cc1)C(=O)N[C@@H](Cc1ccccc1)C(=O)N[C@@H](CO)C(=O)N[C@@H](CCCCN)C(=O)O` [10-mer], the “efficiency of 10-mer cleavage” value at CPB (TAFIa) [1] is recorded as “about 60%”. Also, at human CMKLR1 (10-mer treated with CPN (30 nM) or CPB (30 nM) at 37 °C for 30 min, Fig. 1B), the “chemotactic activity after treatment with CPN or CPB” value was “substantially enhanced”. Further, the CMKLR1-dependent chemotaxis entry at human CMKLR1 (peptide alone, even at 10 μM, 3 h at 37 °C, Fig. 1A) was “did not induce any significant CMKLR1-dependent chemotaxis”. The “kcat/Km by CPN, fold faster than CPB” value on CPN is on record as “about 20 fold”. Besides, the kcat/Km (usually the turnover number divided by the Michaelis constant) on CPN (hydrolysis by 5 nM CPN, peptide 20 to 320 μM, 5 min at 37 °C) came to 470000 M⁻¹ s⁻¹; at CPB (TAFIa) [2], 22000 M⁻¹ s⁻¹.

For the compound YFPGQFAFSK, the cleaved bond entry in data set [3] is on record as “S157-K158, major”.
